Measured values: patent US4831155A (priority 1984, dated 1989)

Test system: acetylcholinesterase (AchE)
Experiment: acetylcholinesterase (AChE) inhibition in the brain and serum after i.p. administration
Type: in vivo, rats
Conditions: for AChE inhibition, serum (M ± SE): Table I, 10 min, salicylate
Procedure: The acetylcholinesterase (AchE) inhibition in the brain and serum was tested for the heptyl derivative in comparison with physostigmine. Both physostigmine and heptyl derivative were used in form of salycilate and dissolved in distilled water with carbossimethyl cellulose sodium salt at 2%.
Acetylcholinesterase (AChE) inhibition in the brain
and serum 10 min. after i.p. administration of different
doses of physostigmine and heptyl to rats
Acetylcholinesterase (AChE) inhibition in the brain and in serum after
i.p. administration of equiactive doses of
physostigmine and heptyl, at various time intervals (10-60-120 min.)

[1] = Table II, i.p. equiactive doses: Phys. 0.2, Hept. 1.0 mg/Kg, n=4

CNC(=O)Oc1ccc2c(c1)[C@]1(C)CCN(C)[C@@H]1N2C [Eserine] was tested, and the “AChE inhibition, serum (M ± SE)” value (0.10 mg/kg i.p., n=4) was 19.55 ± 8.29%, the “AChE inhibition, serum (M ± SE)” value (0.15 mg/kg i.p., n=4) was 32.93 ± 11.34% and the “AChE inhibition, serum (M ± SE)” value (0.20 mg/kg i.p., n=4) was 53.68 ± 2.41%. For the same molecule, the “% AChE Inhibition, serum, 10 minutes (M ± SE)” value [1] was 53.68 ± 2.41%, the “% AChE Inhibition, serum, 60 minutes (M ± SE)” value [1] was 9.82 ± 6.83% and the “% AChE Inhibition, serum, 120 minutes (M ± SE)” value [1] was 2.58 ± 1.49%. The “duration of the activity compared with heptyl derivative” value (brain and serum) was “much lower”, the “activity measured after 10 minutes compared with heptyl derivative” value (brain and serum, 10 minutes) was “higher than that of heptyl derivative” and the “activity after 120 minutes” value (brain and serum, 120 minutes) was “becomes insignificant”.
